Test results taken from patent publication US20260384404A1, “CRYSTALLINE FORMS, AND PROCESSES FOR THEIR PRODUCTION” (published 2026).

Key:
[1] = Thermogravimetric analysis (TG)
Protocol: The analyses were performed using a Mettler-Toledo TGA/DSC3+ simultaneous system with autosampler, using closed aluminium crucibles (100 μl volume) with a pinhole. The TG/DSC signals were recorded from 30 to 250 °C with linear heating rate (10 °C/min) under a 150 ml/min nitrogen flow. About 10 mg of powder was used for each measurement.

[2] = Dynamic Vapor Sorption (DVS) / hygroscopicity; settings: 25 °C
Protocol: DVS Intrinsic1 system (Surface Measurement Systems Ltd UK) with Intrinsic Control Software and software DVS Analysis Suite for elaboration.
The analysis was run at a fixed temperature of 25±0.1 °C.
The sample was dried for 6 hours under a continuous flow of dry air (Relative Humidity, RH<0.1%) to establish the dry mass (preconditioning step).
The relative humidity was then increased from 0% to 90% RH (in 10% RH steps) and then decreased to 0% RH in a similar way, until the completion of two full sorption/desorption cycles. The instrument was run in a dm/dt mode (mass variation over time variation) and a fixed dm/dt value of 0.002%/min was selected, in order to let equilibrium to be reached at each step.
A maximum dm/dt stage time of 3 hours along with minimum dm/dt stability duration of one hour were chosen. In the last step the samples were kept for 3 hours under a flow of dry air necessary for the weight equilibration.
The hygroscopicity of the sample is determined using the following equation:
Weight change=100×[(W2−W1)/W1]
Where: • W1=weight of sample at the start of the experiment (25 °C, 40% RH) • W2=weight of sample at 25 °C at 80% RH in the first absorption cycle • (see V. Murikipudi et al., Pharmaceutical Development and Technology, 2013; 18(2): 348-358)

CCCCCC(=O)C[C@]12C(C3[C@@H]4O[C@]4(CO)[C@@H](O)[C@]4(O)C(=O)C(C)=CC4[C@@]3(O)[C@H](C)[C@H]1OC(=O)CCCCC)C2(C)C (stereo partly shown)
TG loss of weight ([1]; associated with the transition at about 80 °C): 2.22%
TG loss of weight ([1]; associated with the transition, listed as crystalline form IIA of EBC-1013): 1.64%
TG loss of weight ([1]; associated with the transition, listed as crystalline form IIC): 1.40%
TG loss of weight ([1]; during heating to 100 °C): 2.22%
Change in Mass (%) ([2]; 30% relative humidity): 0.59%
Change in Mass (%) ([2]; 60% relative humidity): 1.35%
Change in Mass (%) ([2]; 90% relative humidity): 2.03%
